{"source": "patent US11690828B2", "about": "“Treatment of CNS diseases with sGC stimulators” (Cyclerion Therapeutics, Inc., priority 2016, dated 2023)", "tested_on": "rats", "test": "Oxaliplatin - acetone test (reaction time)", "type": "in vivo, rat", "details": "internal reference Gabapentin 100 mg/kg, po", "experimental": "Oxaliplatin. Induction: Acute peripheral neuropathy was induced by a single intraperitoneal injection of oxaliplatin (6 mg/kg, i.p) 30 hours before testing. Acetone test: Cold allodynia was measured using the acetone test. In this test, the latency of hind paw withdrawal was measured after application of a drop of acetone (50 μL) to the plantar surface of both hind paws three times for both hind paws alternatively with intervals of approximately 2-3 min.\nTesting: 120 minutes after treatment. N=4/model/test. Results are expressed for each group as a percentage of activity calculated from the mean value of the vehicle-treated animals and compared to naïve animals, control paw, or cut-off value, depending on the test.", "data": [{"smiles": "NCC1(CC(=O)O)CCCCC1", "values": [{"measurement": "% of activity vs. vehicle, oxaliplatin acetone test (reaction time)", "value": 82, "unit": "%"}]}]}
